The source of these data is patent US20240084003A1 (SIMCERE ZAIMING PHARMACEUTICAL, published 2024).

The test concerns the target T1, human CD22-ECD-His protein (human, UniProt P20273 20-687).
T1 construct: Recombinant, from HEK293E cells; also called hCD22-ECD-His; human CD22-His protein; not shown: His tag
T1 sequence: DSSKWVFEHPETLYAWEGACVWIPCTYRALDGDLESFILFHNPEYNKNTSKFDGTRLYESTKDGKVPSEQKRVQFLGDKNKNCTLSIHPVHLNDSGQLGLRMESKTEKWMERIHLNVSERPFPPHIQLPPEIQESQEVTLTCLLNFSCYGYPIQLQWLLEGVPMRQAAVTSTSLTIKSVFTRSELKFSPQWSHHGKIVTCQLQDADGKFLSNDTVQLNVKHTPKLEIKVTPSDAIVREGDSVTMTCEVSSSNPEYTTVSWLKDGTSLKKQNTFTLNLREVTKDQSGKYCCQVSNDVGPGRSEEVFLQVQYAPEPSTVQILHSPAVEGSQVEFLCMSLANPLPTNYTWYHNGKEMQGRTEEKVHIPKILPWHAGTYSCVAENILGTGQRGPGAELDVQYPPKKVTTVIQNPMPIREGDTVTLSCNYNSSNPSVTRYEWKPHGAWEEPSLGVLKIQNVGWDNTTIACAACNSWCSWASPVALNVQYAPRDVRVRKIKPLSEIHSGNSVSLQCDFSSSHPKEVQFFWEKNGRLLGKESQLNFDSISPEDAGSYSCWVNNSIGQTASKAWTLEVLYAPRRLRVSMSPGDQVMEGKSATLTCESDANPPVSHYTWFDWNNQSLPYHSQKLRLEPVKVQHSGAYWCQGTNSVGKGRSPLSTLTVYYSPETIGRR
Briefly: SPR (Biacore), antibody captured on Protein A chip, CD22-ECD-His in solution. As for the experimental part: Sample buffer and running buffer were HBS-EP+(10 mM HEPES, 150 mM NaCl, 3 mM EDTA, 0.05% surfactant P20) (GE Healthcare; BR-1006-69). The flow-through cell was set to 25° C. The sample block was set to 16° C. Both were pretreated with the running buffer. In each cycle, the antibody to be tested was first captured with a Protein A chip, then a single concentration of CD22 antigen protein was injected. The binding and dissociation process of the antibody and the antigen protein was recorded, and finally Glycine pH 1.5 (GE Healthcare; BR-1003-54) was used to complete chip regeneration. Binding was measured by injecting different concentrations of recombinant human CD22-ECD His protein in solution for 240 s with a flow rate of 30 μL/min. The concentration started from 200 nM (see the detailed results for the actual concentration in the test) and was diluted at 1:1, making a total of 5 concentrations. The dissociation phase was monitored for up to 600 s and was triggered by switching from sample solution to running buffer. The surface was regenerated by washing with a 10 mM of glycine solution (pH 1.5) for 30 s at a flow rate of 30 μL/min. Bulk refractive index difference was corrected by subtracting the response obtained from the goat anti-human Fc surface. Blank injection was also subtracted (=double reference). […]

What is called koff is the first-order rate constant of dissociation.

B1: F1.231.15 (antibody, IgG1, V domains shown)
VH: QVQLQQPGAELVKPGASVKLSCKTSGYTFTIYWMQWVKQRPGRGLEWIGRIDPHSGDTHYNENFTTKVTLTVDETSNTAYMHLSGLTSEDSAVYYCARRDYSYYVLDYWGQGTSVTVSS
VL: DVVLTQTPLSLPVSLGDQASISCRSSQSLVHINGDTYLHWYLQKPGQSPKLLIYTVFNRFSGVPDRFSGSGSGTDFTLKISRVEAEDLGAYFCSQSTHVPYTFGGGTKLEIKR
notes: Chimeric IgG1 kappa
B1 yielded an off-rate (koff) of 0.00244 s⁻¹.
